ChEMBL document CHEMBL1126803, “Stereospecific and selective 5-HT2 antagonism in a series of 5-substituted trans-1-piperazino-3-phenylindans” (J Med Chem, 1993)

The chains behind the UniProt entries cited, without tags or fusion partners.
UniProt P61169, whole entry: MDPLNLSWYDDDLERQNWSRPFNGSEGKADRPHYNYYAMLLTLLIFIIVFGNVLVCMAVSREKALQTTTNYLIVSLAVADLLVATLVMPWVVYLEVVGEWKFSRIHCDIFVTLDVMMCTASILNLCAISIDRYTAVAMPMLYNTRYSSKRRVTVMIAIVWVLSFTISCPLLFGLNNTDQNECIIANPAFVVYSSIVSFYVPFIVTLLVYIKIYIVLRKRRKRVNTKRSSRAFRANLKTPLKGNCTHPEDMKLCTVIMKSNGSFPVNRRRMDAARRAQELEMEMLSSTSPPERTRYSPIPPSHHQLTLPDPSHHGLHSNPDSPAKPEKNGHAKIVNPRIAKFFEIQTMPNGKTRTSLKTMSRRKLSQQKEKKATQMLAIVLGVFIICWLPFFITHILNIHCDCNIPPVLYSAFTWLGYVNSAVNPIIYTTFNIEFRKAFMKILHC

Target: D(2) dopamine receptor (Rattus norvegicus, UniProt P61169)
Assay: Displacement of [3H]spiperone from dopamine D2 receptors in rat striatal membranes
Format: cell membranes, Membrane
Summary of the method: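 Radioligand displacement from rat brain membranes: 3H-ketanserin on cortical membranes (5-HT2), 3H-prazosin on whole brain membranes (alpha1), 3H-spiperone on striatal membranes (D2). Two full concentration-effect curves per compound, each with five test drug concentrations in triplicate spanning three decades. IC50 estimated from curves on a log-concentration scale. Outliers beyond 3 times the sd-ratio were discarded after extra determinations.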

O=C1NCCN1CCN1CCN(C2CC(c3ccc(F)cc3)c3cc(Cl)ccc32)CC1 (stereo unspecified)
IC50: 360 nM
